Test results published in ChEMBL document CHEMBL1126554, “Synthesis of novel modified dipeptide inhibitors of human collagenase: beta-mercapto carboxylic acid derivatives” (J Med Chem, 1993).

target: T1, Interstitial collagenase (Homo sapiens, UniProt P03956); assay: Inhibition of radiolabeled rat skin type I collagen degradation by purified human lung fibroblast collagenase.
T1 sequence (P03956 whole entry): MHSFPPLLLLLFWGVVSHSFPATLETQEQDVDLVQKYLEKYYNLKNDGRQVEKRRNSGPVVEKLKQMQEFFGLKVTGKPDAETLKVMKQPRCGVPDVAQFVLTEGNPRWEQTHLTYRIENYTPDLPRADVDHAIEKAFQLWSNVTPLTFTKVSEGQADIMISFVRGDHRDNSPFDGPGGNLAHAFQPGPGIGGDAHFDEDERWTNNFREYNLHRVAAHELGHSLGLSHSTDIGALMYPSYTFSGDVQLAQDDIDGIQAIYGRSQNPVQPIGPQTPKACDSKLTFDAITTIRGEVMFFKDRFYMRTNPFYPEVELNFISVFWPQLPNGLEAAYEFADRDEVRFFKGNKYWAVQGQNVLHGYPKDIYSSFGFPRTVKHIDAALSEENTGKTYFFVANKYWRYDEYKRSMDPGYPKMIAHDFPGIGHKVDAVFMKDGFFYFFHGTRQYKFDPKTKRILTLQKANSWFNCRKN
Outline: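 Trypsin-activated, semipurified enzyme from WI-38 lung fibroblast culture supernatants. 3H- or 14C-acetylated collagen (100 μg/tube) added at 4 °C, then 37 °C for 1000 min. Spun 12 000 rpm, 15 min, 4 °C. Supernatant peptides counted by scintillation. Enzyme set for 70% degradation.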

IC50 | Compound
0.0031 µM | CNC(=O)[C@H](Cc1ccc(OC)cc1)NC(=O)[C@H](CC(C)C)[C@@H](S)CC(=O)OC
4.5 µM | CNC(=O)[C@H](Cc1ccc(OC)cc1)NC(=O)C(CC(C)C)C(S)CC(=O)OCc1ccccc1 (stereo in doubt; 44b)
0.0018 µM | CNC(=O)[C@H](Cc1ccc(OC)cc1)NC(=O)[C@H](CC(C)C)[C@@H](S)CC(=O)OCc1ccccc1
0.034 µM | CNC(=O)[C@H](Cc1ccc(OC)cc1)NC(=O)[C@@H](CC(C)C)[C@H](S)CC(=O)OCc1ccccc1
0.98 µM | CNC(=O)[C@H](Cc1ccc(OC)cc1)NC(=O)C(CC(C)C)C(S)CC(=O)OCc1ccccc1 (stereo in doubt; 44c)

target: T1, Interstitial collagenase; assay: Inhibition of rat skin type I collagen degradation by purified human lung fibroblast collagenase without beta-mercaptoethanol
Outline: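 β-Mercaptoethanol omitted. Enzyme was trypsin-activated, semipurified collagenase from WI-38 fibroblast culture supernatants. Compounds sonicated into MeOH, serially diluted. Collagen 3H- or 14C-acetylated, 100 μg/tube, added to tubes cooled to 4 °C. Incubated 37 °C for 1000 min, centrifuged 12 000 rpm for 15 min at 4 °C. Soluble supernatant peptides counted by liquid scintillation.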

IC50 | Compound
0.068 µM | CNC(=O)[C@H](Cc1ccc(OC)cc1)NC(=O)[C@H](CC(C)C)[C@@H](S)CC(=O)OCc1ccccc1
